Results as given in US20070104652A1, “Pharmaceutical spray formulation comprising a hydro fluor alkane and an acylated cyclodextrin” (priority 2003, published 2007).

Test: Solubility of peracetylated cyclodextrins in HFA propellants, assessed visually
Type: physicochemical
Settings: equilibrated one week, visual
Experimental: The solubility of peracetylated cyclodextrins (alpha, beta and gamma) in HFA propellants was assessed visually in clear PET vials crimped with a continuous pMDI valve. Known amounts of cyclodextrins were weighed into the PET vials. Continuous valves were crimped on the vial, and HFAs were added under pressure to the required amount. The samples were left to equilibrate over one week and were visually inspected. The solubility of the modified cyclodextrin at room temperature was evaluated by discriminating between samples that were clear by opposition to those samples that still had solid particles in suspension.

solubility in HFA 134a (HFA 134a, room temperature): above 1 % w/w
solubility in HFA 227 (HFA 227, room temperature): above 1 % w/w
Substance: peracetylated gamma (γ) cyclodextrin
